Apparent affinities of Ab-14 variants for a coronavirus HR2 peptide

Source: Engelhart et al. 2022 (doi:10.1038/s41597-022-01779-4), MIT Lincoln Laboratory and A-Alpha Bio; data file from the FLAb repository.

Antigen: PDVDLGDISGINAS, a 14-residue peptide of the SARS-CoV-2 spike HR2 region.

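The starting antibody came from a phage panning campaign against this peptide. Variants in AAYL49 differ from the parent at up to three CDR positions; double and triple changes were sampled at random. The assay is AlphaSeq: two haploid yeast populations carry antibody and antigen on their surface. Binding brings cells together so that they mate, and sequencing counts the barcode pairs among the diploids. The ratio of observed to expected reads was calibrated, replicate by replicate, on BCL2-family standards whose Kd was known from biolayer interferometry. There are three technical replicates.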

Ab-14 is the parent antibody, in scFv form: VH, then a 15-residue (Gly4Ser)3 linker, then VL. The light chain is unchanged in all variants.
VH: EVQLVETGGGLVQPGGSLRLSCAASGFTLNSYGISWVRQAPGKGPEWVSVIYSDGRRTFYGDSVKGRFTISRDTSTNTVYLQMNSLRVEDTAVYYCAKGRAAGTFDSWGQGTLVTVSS
VL: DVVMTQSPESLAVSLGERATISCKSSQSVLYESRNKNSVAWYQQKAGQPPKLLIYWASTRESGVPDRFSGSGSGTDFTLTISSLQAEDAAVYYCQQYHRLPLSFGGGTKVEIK

Each variant is given by its three heavy chain CDRs, as the data file delimits them; those of the parent are GFTLNSYGIS, VIYSDGRRTFYGDSVK, GRAAGTFDS. Values are log10 of the apparent Kd in nM; lower means stronger binding. A mean of the replicates is given; it leaves out those without a signal. "no signal" means that the variant was in the library but no mating with the target was seen in any replicate; the authors take this as a sign of poor binding, and no number exists. Three control strains display no target. For library AAYL49, 15% of the pairings with them gave a signal, with a median of 4.06 and one signal in twenty below 2.83, so weak values seen in few replicates may be background. For each scFv, signals with the empty controls are counted beside the result.

CDR-H1,CDR-H2,CDR-H3,"log10 Kd (nM), mean",replicates with signal,control signals
GFTLNSYGIS,CIYSDGRRTFYVDSVD,GRAAGTFDS,no signal,0 of 3,0 of 9
GFTLNSYGIS,QIYSDGRRTFYPDSVK,GRAAATFDS,2.95,1 of 3,2 of 9
GFTLNSYGIS,VIYWDGRRTFYGDSYK,GRAAKTFDS,no signal,0 of 3,0 of 9
GFTLNSHGIS,VIYSDGRRTFYGSSRK,GRAAGTFDS,4.16,3 of 3,2 of 9
GFTLNSYGIH,VIYSDGCRTFVGDSVK,GRAAGTFDS,5.40,2 of 3,7 of 9
GFTLNSYGIS,VIVSDGRRTFYGDSVK,GRDAGTPDS,5.16,2 of 3,2 of 9
YFTLNSYGIS,VIYSDGRRTFYGDSVK,GRFAGMFDS,2.47,2 of 3,0 of 9
GFTLNSYGFS,VIRSDGRRTFYGDSVK,GRAAGTDDS,4.51,3 of 3,1 of 9
GFTLNSKGIS,AIYSDGRRKFYGDSVK,GRAAGTFDS,no signal,0 of 3,0 of 9
LFTLNSYGII,MIYSDGRRTFYGDSVK,GRAAGTFDS,no signal,0 of 3,0 of 9
GFSLNSYGIS,VIYSDGRRTFYGDSVK,GRAAGAFSS,0.63,3 of 3,2 of 9
GFTLNSYGIS,VIYSDGRRTFYGDNVK,GRAAEHFDS,no signal,0 of 3,0 of 9
GFTLNSYGIS,VIYSDGRLNFYGDSVK,GAAAGTFDS,no signal,0 of 3,0 of 9
GFTLNSYGIS,VIYSDGMRIFYGDSVK,GRAAGTFDM,2.97,3 of 3,0 of 9
GFTLNSGGIS,VIYSDGRRTMYGDSVD,GRAAGTFDS,3.03,1 of 3,0 of 9
GFTLNSYGIS,VIYIDGRRTFYGDSVK,GRRAGTSDS,no signal,0 of 3,0 of 9
GFTLNSYGLS,VIYSDGRRTFYGDSVK,GRAAGTFDE,no signal,0 of 3,0 of 9
DFTLNSYGIS,VIYSDGRRTFHGDSVK,VRAAGTFDS,no signal,0 of 3,0 of 9
GFTLNSYGQS,VIPSDGRRTFYGDSVK,MRAAGTFDS,5.42,1 of 3,0 of 9
GFILNSYGIS,VIYSDGRVTFYGDSVK,GRAADTFDS,no signal,0 of 3,0 of 9
GFTLNSYGIS,VIYSDGRRTFYGDSIK,GRAAGWFDK,2.45,1 of 3,0 of 9
GFTLNSYGIS,VIYWDCRRTFYGDSVK,GPAAGTFDS,no signal,0 of 3,0 of 9
GFTLSSYGIK,VIYSDGRRQFYGDSVK,GRAAGTFDS,3.26,1 of 3,0 of 9
GFTLNSYCIS,VIYSDGRRNFGGDSVK,GRAAGTFDS,no signal,0 of 3,0 of 9
GFTLNSYQIS,VQYSDGRRTFYGDSNK,GRAAGTFDS,no signal,0 of 3,2 of 9
GFTLNSGGIS,VIYWDGRRTFYGDPVK,GRAAGTFDS,4.63,1 of 3,5 of 9
GFLLNSYNIS,VIYSDGRRTFYGDSVK,GRAAKTFDS,no signal,0 of 3,2 of 9
GFTLNSYGIS,VIDSDGRRTFYGHSVK,GRAAGTFDL,no signal,0 of 3,0 of 9
GFTLNSYGMS,VIYSDGRRTFYGDSVK,GRAAGMFDR,3.83,3 of 3,3 of 9
GFTLNSYGIS,VIYEDGRATFYGDSCK,GRAAGTFDS,no signal,0 of 3,1 of 9
GFTLNSNGIS,VIYSKGRRTFYGDSVK,GRAAKTFDS,3.92,2 of 3,3 of 9
GHTLNKYGIS,VIYSDGRRTFYGDSVK,GRAAGFFDS,no signal,0 of 3,0 of 9
GFTLNSYGIS,VIYSDHRHTFYGDSVK,GRATGTFDS,no signal,0 of 3,1 of 9
GFTLNSYGIS,VIYSDGRRTFIKDSVK,GEAAGTFDS,0.61,3 of 3,1 of 9
GFTLNSYGIW,VIYSDGIRTFYGDSVK,GRGAGTFDS,no signal,0 of 3,0 of 9
GFTLNSYGIY,VIYSVGRRTFYGDFVK,GRAAGTFDS,no signal,0 of 3,1 of 9
GFTLNSYGIS,VIYVDFRRTFYGDSVK,GRAAGTFQS,no signal,0 of 3,0 of 9
GFTLNSHGIS,VIYSDGRRTFYGDSVK,GRNALTFDS,no signal,0 of 3,1 of 9
GFTLNSYGIS,VIYSDGYRTFYGDSVK,GRNAGPFDS,3.17,3 of 3,1 of 9
GFTLNSYGIS,VIRSDGRRTFYGDSVM,GRAAGTFDS,3.73,1 of 3,0 of 9
GFTLNSYVFY,VIYSDGRRTFYGDSVK,GRAAGTFDS,no signal,0 of 3,0 of 9
GCCLNSYGIS,VIYSDGRRTFKGDSVK,GRAAGTFDS,no signal,0 of 3,0 of 9
GFTLNSYWIS,VIYSCGRRTFYGDSVK,GRAAGTFHS,no signal,0 of 3,0 of 9
GFTLNSYGIS,QIYSDGRRTFYGDSDK,GRAAGTFDA,4.80,2 of 3,5 of 9
GFTLVSYGIS,VIYSDGRLTFYGDSVK,GRAAGTFDS,no signal,0 of 3,2 of 9
SFTLNSYGID,VIYSDGRRTFYGDSVK,GRAAGTFCS,4.62,3 of 3,3 of 9
GFTLNSYGIS,VIMSDGRFTSYGDSVK,GRAAGTFDS,no signal,0 of 3,0 of 9
GFTLNLYGIS,VIYSDGRRTRYGDSVK,GRAAGQFDS,no signal,0 of 3,2 of 9
GFTLASYGIS,VIYTDGRRTFYGDSWK,GRAAGTFDS,no signal,0 of 3,0 of 9
GFTLNSYDIS,VIYNDGRFTFYGDSVK,GRAAGTFDS,3.32,1 of 3,2 of 9
GFCLNSYGIS,VMYSGGRRTFYGDSVK,GRAAGTFDS,no signal,0 of 3,0 of 9
GFTLNSYGIS,VIYSVMRRTFYGDSVK,GRAAGVFDS,4.96,1 of 3,1 of 9
GPTLNSYGIS,VKYSDGRRTFYGDSVK,GRAAGTFDA,no signal,0 of 3,1 of 9
GFFLNSYGIS,VIYSDGRRTFYGCSVK,GDAAGTFDS,no signal,0 of 3,0 of 9
GHTLNSYGIK,VIYSDGRRTFYGDSVK,GFAAGTFDS,no signal,0 of 3,0 of 9
SHTLNSYGIS,VIYSDGRRTFYGDSVN,GRAAGTFDS,2.36,3 of 3,2 of 9
GFTLASYGIS,VIYSDGRRTQYGDSEK,GRAAGTFDS,4.18,2 of 3,4 of 9
GFTLNSPGIS,VIYSDGRRTFYGDSSK,QRAAGTFDS,no signal,0 of 3,5 of 9
GFTLNSYGIS,VIYSDGRRCFRGDSVK,GRAADTFDS,no signal,0 of 3,0 of 9
GFTLNSYGIS,VIYSDGRRQFYGDSVK,GRAAGQFDS,1.61,3 of 3,2 of 9
GFTLTSYGIS,VIYSDNRRTFYPDSVK,GRAAGTFDS,no signal,0 of 3,0 of 9
GFTLNSYGIS,VIYSDGKRIFYGDSVK,GRAAGTFDG,1.46,2 of 3,1 of 9
GFTLNSYPIS,VIYSDGLRTFYGDSVK,GRPAGTFDS,4.10,1 of 3,3 of 9
GFTLNSPDIS,VIYSDGRRTFYGISVK,GRAAGTFDS,no signal,0 of 3,0 of 9
GFTLNSYGIR,VIYSNGRRTFYGDSIK,GRAAGTFDS,no signal,0 of 3,1 of 9
GFTLNSYIIS,VIYSDGRRTFWCDSVK,GRAAGTFDS,3.81,2 of 3,2 of 9
GFKLNSYGIS,VIYSDGRRTFYGDSQK,GRAAGTADS,no signal,0 of 3,0 of 9
GFTTNSYGIS,VIYSDCRRTFYGDSVA,GRAAGTFDS,no signal,0 of 3,0 of 9
WFTLNSYGIS,VIYSVMRRTFYGDSVK,GRAAGTFDS,4.99,2 of 3,4 of 9

Excerpt, the first 5 entries:

CDR-H1,CDR-H2,CDR-H3,"log10 Kd (nM), mean",replicates with signal,control signals
GFTLNSYGIS,CIYSDGRRTFYVDSVD,GRAAGTFDS,no signal,0 of 3,0 of 9
GFTLNSYGIS,QIYSDGRRTFYPDSVK,GRAAATFDS,2.95,1 of 3,2 of 9
GFTLNSYGIS,VIYWDGRRTFYGDSYK,GRAAKTFDS,no signal,0 of 3,0 of 9
GFTLNSHGIS,VIYSDGRRTFYGSSRK,GRAAGTFDS,4.16,3 of 3,2 of 9
GFTLNSYGIH,VIYSDGCRTFVGDSVK,GRAAGTFDS,5.40,2 of 3,7 of 9